{"source": "paper PMC9804871", "about": "“Effect of Opicapone on Levodopa Pharmacokinetics in Patients with Fluctuating Parkinson's Disease” (Movement Disorders, 2022)", "key": {"[1]": {"assay": "12-hour levodopa plasma pharmacokinetics", "assay_type": "in vivo, human (patients with PD)", "conditions": "for Levodopa FI / Levodopa t1/2: mean; for Levodopa AUCtotal / Levodopa FI (over all intakes): mean (%CV); for Levodopa AUCtotal, geometric mean (90% CI) / Levodopa FI, geometric mean (90% CI): N 12", "experimental": "The study design is illustrated in Figure 1.\nPharmacokinetic evaluation occurred over 12 hours with sampling every 30 minutes, except for the last sample following each LD dose in the opicapone plus four LD intake regimen, which was sampled at 1 hour. The main pharmacokinetics parameters assessed included maximum observed plasma concentration (Cmax), time to achieve peak plasma levels (tmax), minimum observed plasma concentration (Cmin), plasma elimination half‐life (t1/2), area under the curve (AUC), and fluctuation index (FI; as an expression of peak‐to‐trough fluctuation, Cmax, and Cmin, relative to average concentration [Cavg]). The pharmacokinetics of the LD metabolite 3‐O‐methyldopa (3‐OMD) was also evaluated.\nDescriptive statistics were used to summarize the pharmacokinetics parameters for LD and 3‐OMD for each of the three regimens. […] No formal comparison was performed between opicapone regimens."}, "[2]": {"assay": "12-hour 3-O-methyldopa plasma pharmacokinetics", "assay_type": "in vivo, human (patients with PD)", "conditions": "for 3-O-methyldopa AUCtotal, Geometric Mean (90% CI): N 12; for 3-O-methyldopa AUCtotal: mean (%CV)"}, "[3]": {"conditions": "five-intake LD/CD 500/125 mg vs five-intake LD/CD 400/100 mg plus opicapone 50 mg, fourth LD/CD intake"}, "[4]": {"conditions": "five-intake LD/CD 500/125 mg vs five-intake LD/CD 400/100 mg plus opicapone 50 mg"}, "[5]": {"conditions": "five-intake LD/CD 500/125 mg vs five-intake LD/CD 400/100 mg plus opicapone 50 mg, second LD/CD intake"}, "[6]": {"conditions": "five-intake LD/CD 500/125 mg vs five-intake LD/CD 400/100 mg plus opicapone 50 mg, third LD/CD intake"}, "[7]": {"conditions": "five-intake LD/CD 500/125 mg vs four-intake LD/CD 400/100 mg plus opicapone 50 mg, first LD/CD intake"}, "[8]": {"conditions": "five-intake LD/CD 500/125 mg vs four-intake LD/CD 400/100 mg plus opicapone 50 mg, fourth LD/CD intake"}, "[9]": {"conditions": "five-intake LD/CD 500/125 mg vs four-intake LD/CD 400/100 mg plus opicapone 50 mg"}, "[10]": {"conditions": "five-intake LD/CD 500/125 mg vs four-intake LD/CD 400/100 mg plus opicapone 50 mg, second LD/CD intake"}, "[11]": {"conditions": "five-intake LD/CD 500/125 mg vs four-intake LD/CD 400/100 mg plus opicapone 50 mg, third LD/CD intake"}, "[12]": {"conditions": "five-intake levodopa/carbidopa 500/125 mg vs five-intake levodopa/carbidopa 400/100 mg plus opicapone 50 mg"}, "[13]": {"conditions": "five-intake levodopa/carbidopa 500/125 mg vs four-intake levodopa/carbidopa 400/100 mg plus opicapone 50 mg"}, "[14]": {"conditions": "5-intake LD/CD 500/125mg vs 4-intake LD/CD 400/100mg plus OPC 50mg, 1st LD/CD intake, mean"}, "[15]": {"conditions": "5-intake LD/CD 500/125mg vs 5-intake LD/CD 400/100mg plus OPC 50mg, 1st LD/CD intake, mean"}}, "note": "Marks after values point to notes of the source that are not given here.", "data": [{"substance": "levodopa/carbidopa [LD/CD]", "values": [{"measurement": "Levodopa FI", "setting": "[1]; [3]", "result": "112^d %"}, {"measurement": "Levodopa t1/2", "setting": "[1]; [3]", "result": "1.4^d h"}, {"measurement": "Levodopa AUCtotal", "setting": "[1]; [4]", "result": "9310 (23.6) h · ng/mL"}, {"measurement": "Levodopa FI (over all intakes)", "setting": "[1]; [4]", "result": "175.5 (24.9) %"}, {"measurement": "Levodopa FI", "setting": "[1]; [5]", "result": "172^b %"}, {"measurement": "Levodopa t1/2", "setting": "[1]; [5]", "result": "1.4^b h"}, {"measurement": "Levodopa FI", "setting": "[1]; [6]", "result": "148^d %"}, {"measurement": "Levodopa t1/2", "setting": "[1]; [6]", "result": "1.5^e h"}, {"measurement": "Levodopa FI", "setting": "[1]; [7]", "result": 202, "unit": "%"}, {"measurement": "Levodopa t1/2", "setting": "[1]; [7]", "result": "1.1^a h"}, {"measurement": "Levodopa FI", "setting": "[1]; [8]", "result": "118^d %"}, {"measurement": "Levodopa t1/2", "setting": "[1]; [8]", "result": "1.2^d h"}, {"measurement": "Levodopa AUCtotal", "setting": "[1]; [9]", "result": "10,391 (23.4) h · ng/mL"}, {"measurement": "Levodopa FI (over all intakes)", "setting": "[1]; [9]", "result": "166.9 (20.7) %"}, {"measurement": "Levodopa FI", "setting": "[1]; [10]", "result": "176^c %"}, {"measurement": "Levodopa t1/2", "setting": "[1]; [10]", "result": "0.9^c h"}, {"measurement": "Levodopa FI", "setting": "[1]; [11]", "result": "113^f %"}, {"measurement": "Levodopa t1/2", "setting": "[1]; [11]", "result": "1.3^g h"}, {"measurement": "Levodopa AUCtotal, geometric mean (90% CI)", "setting": "[1]; [12]", "result": "9097 (8111, 10,202) h · ng/mL"}, {"measurement": "Levodopa FI, geometric mean (90% CI)", "setting": "[1]; [12]", "result": "169.6 (145.9, 197.1) %"}, {"measurement": "Levodopa AUCtotal, geometric mean (90% CI)", "setting": "[1]; [13]", "result": "10,126 (8940, 11,469) h · ng/mL"}, {"measurement": "Levodopa FI, geometric mean (90% CI)", "setting": "[1]; [13]", "result": "163.7 (146.9, 182.3) %"}, {"measurement": "3-O-methyldopa AUCtotal, Geometric Mean (90% CI)", "setting": "[2]; 5-intake LD/CD 500/125mg vs 4-intake LD/CD 400/100mg +OPC 50mg", "result": "41051 (34603, 48700) h•ng/mL"}, {"measurement": "3-O-methyldopa FI", "setting": "[2]; [14]", "result": "12.9^a %"}, {"measurement": "3-O-methyldopa t1/2", "setting": "[2]; [14]", "result": "13.5^d h"}, {"measurement": "3-O-methyldopa FI", "setting": "[2]; 5-intake LD/CD 500/125mg vs 4-intake LD/CD 400/100mg plus OPC 50mg, 3rd LD/CD intake, mean", "result": "9.87^b %"}, {"measurement": "3-O-methyldopa FI", "setting": "[2]; 5-intake LD/CD 500/125mg vs 4-intake LD/CD 400/100mg plus OPC 50mg, 4th LD/CD intake, 1 patient", "result": "14.6^c %"}, {"measurement": "3-O-methyldopa AUCtotal", "setting": "[2]; 5-intake LD/CD 500/125mg vs 4-intake LD/CD 400/100mg plus OPC 50mg", "result": "43080 (31.8) h*ng/mL"}, {"measurement": "3-O-methyldopa AUCtotal, Geometric Mean (90% CI)", "setting": "[2]; 5-intake LD/CD 500/125mg vs 5-intake LD/CD 400/100mg +OPC 50mg", "result": "39650 (35181, 44687) h•ng/mL"}, {"measurement": "3-O-methyldopa FI", "setting": "[2]; [15]", "result": "8.63^g %"}, {"measurement": "3-O-methyldopa t1/2", "setting": "[2]; [15]", "result": "15.2^b h"}, {"measurement": "3-O-methyldopa t1/2", "setting": "[2]; 5-intake LD/CD 500/125mg vs 5-intake LD/CD 400/100mg plus OPC 50mg, 2nd LD/CD intake, 1 patient", "result": "9.43^c h"}, {"measurement": "3-O-methyldopa FI", "setting": "[2]; 5-intake LD/CD 500/125mg vs 5-intake LD/CD 400/100mg plus OPC 50mg, 2nd LD/CD intake, mean", "result": "19.7^d %"}, {"measurement": "3-O-methyldopa FI", "setting": "[2]; 5-intake LD/CD 500/125mg vs 5-intake LD/CD 400/100mg plus OPC 50mg, 3rd LD/CD intake, 1 patient", "result": "10.3^c %"}, {"measurement": "3-O-methyldopa AUCtotal", "setting": "[2]; 5-intake LD/CD 500/125mg vs 5-intake LD/CD 400/100mg plus OPC 50mg", "result": "40656 (24.2) h*ng/mL"}]}]}
